Measurements: article PMC12643509, “High-throughput screens identify genotype-specific therapeutics for channelopathies” (JCI Insight, 2025)

Legend:
[1] = system: 12 patient-specific Kv11.1 variants; experiment: Tl+-flux trafficking assay of 12 patient-specific Kv11.1 variants; conditions: 10 μmol/L, 24-hour treatment
[2] = target: 12 patient-specific Kv11.1 variants (Homo sapiens, UniProt Q12809, A561V); experiment: as above; conditions: A561V; minor increase seen by FACS

## Cc1cc(C)c2c(c1)[C@@H](N(Cc1cc(C(F)(F)F)cc(C(F)(F)F)c1)c1nnn(C)n1)CCCN2C[C@H]1CC[C@H](C(=O)O)CC1 [Evacetrapib, evacetrapib]
[1]
  number of the 12 variants with improved trafficking: 6
[2]
  trafficking increase by Tl+-flux assay: not detected
